# Values quoted from earlier work in article PMC8224985 (European journal of medicinal chemistry, 2020).
# Biological target: SphK2
# Settings: read-out: SphK2 Ki; cited from earlier work
smiles,measurement,value
CCCCCCCCc1ccc(-c2noc([C@@H]3CCCN3C(=N)N)n2)cc1 [SLR080811],Ki,1300 nM
